# Apparent affinities of Ab-14 variants for a coronavirus HR2 peptide

Target: peptide PDVDLGDISGINAS, taken from heptad repeat 2 (HR2) of SARS-CoV-2 spike.

The variants keep the heavy chain, the linker and the frameworks of Ab-14 (scFv order VH, a (GGGGS)3 linker, VL).
VH: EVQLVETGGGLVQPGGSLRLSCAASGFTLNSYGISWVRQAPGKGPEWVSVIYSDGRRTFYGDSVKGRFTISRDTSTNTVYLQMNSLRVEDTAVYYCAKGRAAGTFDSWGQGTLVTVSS
VL: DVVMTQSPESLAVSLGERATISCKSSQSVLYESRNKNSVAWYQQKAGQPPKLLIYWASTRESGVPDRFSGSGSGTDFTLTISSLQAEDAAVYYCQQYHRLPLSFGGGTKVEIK

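The starting antibody came from a phage panning campaign against this peptide. Designed CDR sequences, proposed from the first random library and measured here. Several design methods are mixed in this list. The assay is AlphaSeq: two haploid yeast populations carry antibody and antigen on their surface. The frequency of each diploid, read from paired DNA barcodes, reflects how well the two displayed proteins bind. A regression on co-assayed BCL2-family reference pairs converts the normalised counts of each replicate to an apparent Kd. There are six technical replicates.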

The parent's light chain CDRs are KSSQSVLYESRNKNSVA, WASTRES, QQYHRLPLS; each variant's own CDRs replace them letter for letter. Values are log10 of the apparent Kd in nM; lower means stronger binding. A mean of the replicates is given; it leaves out those without a signal. "nd" marks a missing value. The strain was present, yet no cells mated with the target were sequenced in that replicate, which points to weak or no binding. The parent sequence was in this pool as ten entries: three were never detected, three once, and four in most replicates, with averages from 0.34 to 2.37. The authors averaged sequences with at least three values out of six and counted those with two or fewer as poor binders. Background: pairings of all light chain designs with three empty control strains gave a value in 4% of cases (median 2.64, 5th percentile 1.59). Values in that range, when seen in few replicates, are hard to tell from nonspecific mating. Values of this round are not directly comparable with the first-round values of the same sequences.

| CDR-L1 | CDR-L2 | CDR-L3 | log10 Kd (nM) by replicate | mean log10 Kd (nM) |
|---|---|---|---|---|
| KLEMSMPYESRNKNSVA | HASVRES | QQYHRLPLS | -0.32 -0.04 -0.10 -0.32 0.41 0.02 | -0.06 |
| KVSWSWLLESRVWNSVA | NASLRES | QQYHRLPLS | 0.79 0.51 0.40 0.30 0.42 0.66 | 0.51 |
| KLRQLTHIESFNKNNVA | EMTTREQ | QSYDRLPLS | 1.80 1.34 1.45 1.22 1.75 1.54 | 1.52 |
| KSSQSELYESRNKNSVA | NASQRMS | QQYHRLPLS | -0.04 -0.13 -0.11 -0.24 -0.14 0.03 | -0.11 |
| KLSQSMLYESRNKNSVA | NASTRES | QCYHRLPLS | 0.49 0.35 0.53 0.29 0.79 0.82 | 0.54 |
| KSSLHDLDESRNEPSVA | WASTRES | QQVHRDPLS | nd nd nd nd nd nd | nd |
| MISQLMNMGQFAINSVA | QASLRNE | QQYDRLPLM | 1.53 1.75 1.45 1.35 1.34 1.89 | 1.55 |
| KSPQSWLYESRNKNSVA | HASTRED | QSYHRLPLS | 0.56 0.52 0.58 0.64 0.64 0.84 | 0.63 |
| HISQSFMQESVWRNNVA | HQSTREQ | QQYDRLPFS | 0.44 0.32 0.23 -0.11 0.36 0.36 | 0.27 |
| KSSQSELYESRNKNSVA | WASTRES | QQYHRTPLS | 1.25 2.20 2.65 1.73 2.31 1.19 | 1.89 |
| ALTSDLEVEQVNARNVA | NAHAVVS | QQYQHLPLS | -0.18 -0.39 -0.26 -0.55 -0.45 -0.27 | -0.35 |
| KQSQSVLYESRNVNSVA | DASTRSS | QQYHRLPLS | 0.17 -0.07 0.01 0.06 -0.44 0.12 | -0.03 |
| KSSQSVQYESRQKNSVA | EASTRES | QQYHRLPLS | 0.78 0.50 0.41 0.85 0.73 0.64 | 0.65 |
| KVSQSELGQERNKMSVA | SASTREK | QQYHRLPLS | 0.40 0.12 -0.06 -0.35 0.18 0.13 | 0.07 |
| KVSQSVLYESRNKKSVA | DASTRES | QQYHRLPLS | -0.14 -0.28 0.01 -0.34 -0.30 -0.28 | -0.22 |
| KSSQLELYEDRMKNSVA | NASYRLS | QQYHRLPLS | 0.71 1.18 0.46 1.04 0.83 0.44 | 0.78 |
| KWAGSQLYESRNKNSVA | NASTRES | QQYRRLPLS | -0.07 -0.10 -0.27 -0.26 -0.16 0.27 | -0.10 |
| KLSQVTGHMQVEKNNVA | EMETREN | QQYDRLPLS | 0.97 1.15 0.82 0.81 0.67 1.33 | 0.96 |
| KLSCSCLYESANKNSVA | NASTRLS | QQYHRLPLS | 0.24 -0.04 -0.05 -0.12 -0.02 0.23 | 0.04 |
| QFDLFMNYQGMQNAAIA | GATNRHT | QQYQKLPLS | 1.34 0.45 0.65 0.93 0.48 0.86 | 0.78 |
| KLPQSELYESRNKNSVA | NASTRMS | QQYHRLPLS | 0.02 -0.52 -0.32 -0.27 -0.40 0.06 | -0.24 |
| KSSCSEPYDSPNSNSVA | NASTRER | QQYHRLPLS | 0.63 0.53 0.46 0.49 0.43 0.77 | 0.55 |
| KSSQSWLYESRNHNSVA | EASTRES | QQDHRLPLS | 0.96 1.04 1.46 1.61 1.32 1.77 | 1.36 |
| GLSNQETEQIAHANSIA | DRDERDV | QQYAHLPLS | 0.38 0.64 0.31 0.46 0.59 0.57 | 0.49 |
| SLTSHEEEIEGAEASVA | EAMMLES | QQYHRLPLM | 1.26 1.80 1.48 1.78 2.26 1.50 | 1.68 |
| KISQMVKVGMTHGNSIA | EEATRSD | QQYHRLPLS | 1.07 0.84 0.93 0.99 1.06 1.22 | 1.02 |
| KLWQSQLYESRNKNSVA | NASQRLS | QQYHRLPLS | 0.01 -0.16 -0.16 -0.24 -0.24 0.02 | -0.13 |
| IIEQGEYEQEQHQNAIA | DGETRMR | QQYYKLPLV | 0.59 0.75 0.50 0.57 0.38 0.55 | 0.56 |
| KLQQFQEYESRWKNSVA | HASTRLS | QQYHRLPLS | 1.29 1.23 1.52 1.18 1.47 1.49 | 1.36 |
| KLSQSVLYESREKNSVA | NASQRES | QQYHRLPLS | -0.13 -0.25 -0.38 -0.35 -0.40 -0.08 | -0.27 |
| KVQASQEYWSRNKNSVA | QASTRET | QQYHRLPLS | -0.20 0.13 -0.11 -0.34 -0.14 0.09 | -0.09 |
| KLHQSWLYESRNKNSVA | NASQRES | QQYHRLPLS | 0.07 0.12 0.06 0.12 0.14 0.33 | 0.14 |
| NMTEQVFQGSRNKYNIA | AEVKRVY | QQYQRLPLM | nd nd nd nd 1.73 0.83 | 1.28 |
| KVSQSVLGLQRAQNSVA | EASTRES | QQYHRLPLS | 0.35 0.18 -0.10 0.04 0.11 0.23 | 0.14 |
| KLSQSELYESRQKNSVA | NASQRES | QQYHRLPLS | 0.05 -0.39 -0.13 -0.02 -0.34 -0.08 | -0.15 |
| RLLAQNLQNMDKLNSIA | EQSVHYQ | QQYGRLPLT | 2.20 2.88 1.49 1.39 1.96 2.27 | 2.03 |
| KLTATMRFEQSKSNNIA | EVTTRSK | QQYYRLPLA | 0.71 0.47 0.40 0.99 0.47 1.00 | 0.67 |

The opening 6 entries, copied out:

| CDR-L1 | CDR-L2 | CDR-L3 | log10 Kd (nM) by replicate | mean log10 Kd (nM) |
|---|---|---|---|---|
| KLEMSMPYESRNKNSVA | HASVRES | QQYHRLPLS | -0.32 -0.04 -0.10 -0.32 0.41 0.02 | -0.06 |
| KVSWSWLLESRVWNSVA | NASLRES | QQYHRLPLS | 0.79 0.51 0.40 0.30 0.42 0.66 | 0.51 |
| KLRQLTHIESFNKNNVA | EMTTREQ | QSYDRLPLS | 1.80 1.34 1.45 1.22 1.75 1.54 | 1.52 |
| KSSQSELYESRNKNSVA | NASQRMS | QQYHRLPLS | -0.04 -0.13 -0.11 -0.24 -0.14 0.03 | -0.11 |
| KLSQSMLYESRNKNSVA | NASTRES | QCYHRLPLS | 0.49 0.35 0.53 0.29 0.79 0.82 | 0.54 |
| KSSLHDLDESRNEPSVA | WASTRES | QQVHRDPLS | nd nd nd nd nd nd | nd |

From the AlphaSeq antibody data of Li et al. 2023 (doi:10.1038/s41467-023-39022-2), copy in the FLAb collection.